From ChEMBL document CHEMBL6127110, “Pyrazolo-Pyrimidinones with Improved Solubility and Selective Inhibition of Adenylyl Cyclase Type 1 Activity for Treatment of Inflammatory Pain” (J Med Chem, 2024)

Test: in vitro
Conditions: dog, MDCK

Row | Compound | recovery
1 | CCc1cc(=O)[nH]c(-n2nc(C)cc2NCc2cccc(C(F)(F)F)c2)n1 | 47%
2 | CCc1cc(=O)[nH]c(-n2nc(C)cc2N[C@H](C)C2CCCC2)n1 | 35%
3 | CCc1cc(=O)[nH]c(-n2nc(C)cc2N[C@H](C)c2cccc(C(F)(F)F)c2)n1 | 47%
